From PubChem
NRP1-CendR mod = modulators of CendR peptide binding to NRP-1, primary screen, biochemical, fluorescence polarization, uHTS; Neuropilin-1 (Homo sapiens), O14786; FAM-RPARPAR peptide binding to NRP-1; inhibition, % at 25 µM; hit rate 0.85% among 360,000; AID 602438, 2012;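 active = inhibition or corrected inhibition above about 18%, plus a signal ratio from 0.5 to 1.5, limit read from the data, passing the limit was not always enough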
ASAP1 inh = inhibitors of human ASAP1 ArfGAP activity, primary screen, biochemical, fluorescence polarization; AID 624377, 2012; inhibition, % at 16.5 µM; ASAP1-stimulated ARF1 GTP hydrolysis, GDP FP detection; Arf-GAP with SH3 domain, ANK repeat and PH domain-containing protein 1 (Homo sapiens), …; hit rate 0.19% among 360,000; in the data active = inhibition above about 25%;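 note: 0% = vehicle with enzyme and substrate and 100% = no enzyme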
Yeast UUG start = modulators of start codon recognition fidelity in yeast; AID 602363; activity score, % at 18.7 µM; S. cerevisiae UUG-firefly luciferase reporter, luminescence/redox ratio; 0.13% of 350,000 active;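 active = replicate mean at a twofold rise or more, about +100% in these data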;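 note: firefly luciferase made from a UUG start codon reports start codon fidelity; reporter light over untreated wells divided by growth signal over untreated wells; some hits fall short of that in this replicate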
MC4R antagonist = MC4R antagonists of cAMP signaling, primary screen, cell-based, TR-FRET, antagonist arm of biased-ligand search | hit rate 0.48% among 360,000 | inhibition, % at 6.5 µM | MC4R-expressing cells, MTII-stimulated cAMP, LANCE TR-FRET | Melanocortin receptor 4 (Homo sapiens), P32245 | AID 540295, 2011;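 active = inhibition above its plate's cutoff, the mean of tested wells on that plate plus 3 SD, cut at about 29% in these data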;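 note: 0% = Melanotan II alone and 100% = Melanotan II plus saturating MCL0020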
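System: U2OS-MC4R stable cell line; Technique: Eu-cAMP/anti-cAMP TR-FRET, emission 671 nm; Repeats: single well per compound; Also added: Melanotan II; Dosing: one concentration, 6.5 µM nominal; Schedule: 30-min compound, 1-h challenge, 1-h detection, room temperature.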
MC4R ag barr = MC4R agonists recruiting beta-arrestin, primary screen, cell-based, luminescence, agonist arm of biased-ligand search. Melanocortin receptor 4 (Homo sapiens), P32245. U2OS MC4R beta-arrestin complementation; percent of melanotan II response, DMSO zero. activation, % at 8.9 µM. hit rate 0.98% among 360,000. AID 540308, 2011;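 active = activation above a per-plate cutoff, the mean activation of sample wells on that plate plus 3 SD, cut at about 8% in these data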
ARFGAP1 inh = inhibitors of rat ARFGAP1 GAP activity, primary screen, biochemical, fluorescence polarization, GDP tracer | AID 651572, 2012 | hit rate 0.26% among 360,000 | Arfgap1-stimulated ARF1 GTP hydrolysis, GDP FP detection | inhibition, % at 16.5 µM | ADP-ribosylation factor GTPase-activating protein 1 (Rattus norvegicus), Q62848;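 active = inhibition above a per-plate limit, mean inhibition of low control wells plus 3 SD, cut at about 25% in these data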;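 note: 0% = DMSO wells with enzyme and 100% = wells lacking Arfgap1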
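material = rat Arfgap1 catalytic domain, aa 1-136 | also added = human ARF1(Δ1-17)-GTP substrate | compound dosing = one concentration, 16.5 µM, DMSO 1.26% | times = GTP hydrolysis reaction 2 h at 25 °C | measured by = FP, GDP Alexa 633 tracer displaced from anti-GDP antibody, 620/688 nm | evaluation = percent inhibition of Arfgap1-stimulated GTP hydrolysis | replication = single well per compound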
MC4R barr ag = MC4R beta-arrestin agonists, retest, confirmation, cell-based, luminescence, U2OS | U2OS MC4R beta-arrestin recruitment; scaled DMSO 0%, Melanotan II 100% | activation, % at 8.9 µM | shares compounds with MC4R ag barr | hit rate 31% among 2,400;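 active = mean activation across replicates above the hit cutoff set in the earlier primary screen, cut at about 8% in these data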
MOR-DOR barr ag = agonists of MOR-DOR heterodimerization, counter-screen for MC4R biased agonist project, cell-based, luminescence | shares compounds with MC4R ag barr | U2OS PathHunter beta-arrestin, beta-gal luminescence; percent of deltorphin B response, DMSO zero | activation, % at 9.2 µM | hit rate 5.8% among 2,400 | AID 602194, 2012;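 active = mean activation across replicates exceeds the hit threshold derived in the earlier primary screen, cut at about 18% in these data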;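 note: 100% = deltorphin B at 0.9 µM final and 0% = DMSO alone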
Active calls of the source: *. Sampled rows, rich in hits. Any-hit rate of the full collection: about 2.3%.

Amino acid sequences for entries named in this document (tags omitted). Residues count along the entry.
Neuropilin-1 (Homo sapiens), O14786, UniProt O14786, whole entry, looked up: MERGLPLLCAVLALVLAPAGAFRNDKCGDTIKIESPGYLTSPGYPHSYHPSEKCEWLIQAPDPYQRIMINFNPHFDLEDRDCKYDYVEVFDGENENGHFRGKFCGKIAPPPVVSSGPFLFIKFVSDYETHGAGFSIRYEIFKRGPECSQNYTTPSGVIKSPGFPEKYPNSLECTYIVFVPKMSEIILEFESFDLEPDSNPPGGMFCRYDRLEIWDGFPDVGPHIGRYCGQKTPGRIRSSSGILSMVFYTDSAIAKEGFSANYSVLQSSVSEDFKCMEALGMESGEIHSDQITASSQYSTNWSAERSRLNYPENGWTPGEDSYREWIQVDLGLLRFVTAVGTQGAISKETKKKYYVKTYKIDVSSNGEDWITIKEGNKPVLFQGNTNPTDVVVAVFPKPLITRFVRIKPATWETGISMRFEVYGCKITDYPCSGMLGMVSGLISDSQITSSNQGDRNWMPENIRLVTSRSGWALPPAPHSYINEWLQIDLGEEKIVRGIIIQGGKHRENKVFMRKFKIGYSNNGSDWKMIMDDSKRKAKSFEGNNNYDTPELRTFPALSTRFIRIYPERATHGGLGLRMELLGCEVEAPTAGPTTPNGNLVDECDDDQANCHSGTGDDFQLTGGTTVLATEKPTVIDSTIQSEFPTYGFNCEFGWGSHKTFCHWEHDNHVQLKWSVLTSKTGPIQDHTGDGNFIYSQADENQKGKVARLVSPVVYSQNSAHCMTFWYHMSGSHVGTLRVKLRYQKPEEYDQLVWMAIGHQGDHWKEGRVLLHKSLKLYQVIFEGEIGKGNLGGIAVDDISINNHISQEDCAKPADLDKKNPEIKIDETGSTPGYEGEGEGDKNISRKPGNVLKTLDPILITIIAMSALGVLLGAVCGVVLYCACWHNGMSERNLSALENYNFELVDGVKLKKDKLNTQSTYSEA
Melanocortin receptor 4 (Homo sapiens), P32245, UniProt P32245, whole entry, looked up: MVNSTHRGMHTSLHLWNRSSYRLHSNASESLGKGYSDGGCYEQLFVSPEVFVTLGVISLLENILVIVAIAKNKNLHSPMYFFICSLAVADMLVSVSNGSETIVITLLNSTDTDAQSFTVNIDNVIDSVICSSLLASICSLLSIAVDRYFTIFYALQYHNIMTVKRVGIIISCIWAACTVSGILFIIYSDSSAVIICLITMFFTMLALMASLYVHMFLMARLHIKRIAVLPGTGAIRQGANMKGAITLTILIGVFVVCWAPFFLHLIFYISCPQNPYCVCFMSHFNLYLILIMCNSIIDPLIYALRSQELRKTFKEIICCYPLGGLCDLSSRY
ADP-ribosylation factor GTPase-activating protein 1 (Rattus norvegicus), Q62848, UniProt Q62848, whole entry, looked up: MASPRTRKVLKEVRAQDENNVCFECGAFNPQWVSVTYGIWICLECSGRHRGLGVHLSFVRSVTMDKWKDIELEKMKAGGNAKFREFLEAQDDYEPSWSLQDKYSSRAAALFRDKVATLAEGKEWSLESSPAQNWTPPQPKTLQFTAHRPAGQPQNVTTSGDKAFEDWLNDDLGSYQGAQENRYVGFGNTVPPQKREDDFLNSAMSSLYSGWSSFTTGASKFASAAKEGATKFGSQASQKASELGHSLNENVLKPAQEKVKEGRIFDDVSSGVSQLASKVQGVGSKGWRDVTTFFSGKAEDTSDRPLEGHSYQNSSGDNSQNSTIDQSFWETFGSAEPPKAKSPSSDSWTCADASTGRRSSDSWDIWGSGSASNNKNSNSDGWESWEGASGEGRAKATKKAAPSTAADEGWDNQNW
ADP-ribosylation factor GTPase-activating protein 1 (Rattus norvegicus), Q62848, UniProt Q62848, 1-136 limits assumed: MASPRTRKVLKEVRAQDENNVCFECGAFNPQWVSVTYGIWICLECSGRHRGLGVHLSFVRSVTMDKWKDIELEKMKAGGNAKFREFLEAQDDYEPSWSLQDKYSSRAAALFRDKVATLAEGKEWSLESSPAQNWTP

Start of the listing, in advance, 2 compounds:
Results for CC(C)NC(=O)N1[C@H](CO)[C@@H]2c3ccccc3N(C(=O)C3CCCCC3)C[C@@H]21 ?
Yeast UUG start: -4.5

How did Cc1ccc(NC(=S)NCc2ccccc2)cc1[N+](=O)[O-] do in these assays?
NRP1-CendR mod: 0.6; ASAP1 inh: 2.8; MC4R antagonist: -1.7; MC4R ag barr: -0.9; ARFGAP1 inh: 5.8

Main list, previewed entries included:
Results for CC(C)NC(=O)N1[C@H](CO)[C@@H]2c3ccccc3N(C(=O)C3CCCCC3)C[C@@H]21 ?
Yeast UUG start: -4.5

How did Cc1ccc(NC(=S)NCc2ccccc2)cc1[N+](=O)[O-] do in these assays?
NRP1-CendR mod: 0.6; ASAP1 inh: 2.8; MC4R antagonist: -1.7; MC4R ag barr: -0.9; ARFGAP1 inh: 5.8

How did COc1ccc(NC(=S)N/N=C/c2cccn2Cc2ccccc2F)cc1 do in these assays?
NRP1-CendR mod: 0.2; ASAP1 inh: 13.9; MC4R antagonist: 12.8; MC4R ag barr: 10.2*; ARFGAP1 inh: 13.6; MC4R barr ag: 0.2; MOR-DOR barr ag: 7.5

What do the screens show for `COc1ccc(NC(=S)N/N=C/c2ccc(F)c(F)c2)cc1`?
NRP1-CendR mod: 6.8; ASAP1 inh: 0.2; MC4R antagonist: 12.4; MC4R ag barr: 13.7*; ARFGAP1 inh: 1.1; MC4R barr ag: 2.7; MOR-DOR barr ag: 7.1

What do the screens show for `Cc1ccc(CNC(=S)Nc2ccc(C)c([N+](=O)[O-])c2)cc1`?
NRP1-CendR mod: 7.4; ASAP1 inh: -1.9; MC4R antagonist: 1.6; MC4R ag barr: 13.0*; ARFGAP1 inh: 13.3; MC4R barr ag: -0.3; MOR-DOR barr ag: 7.4

How did Cc1ccc(NC(=S)N/N=C/c2ccc(Cl)c([N+](=O)[O-])c2)cc1 do in these assays?
NRP1-CendR mod: -2.8; ASAP1 inh: -3.0; MC4R antagonist: 28.0; MC4R ag barr: 20.8*; ARFGAP1 inh: -1.5; MC4R barr ag: 4.7; MOR-DOR barr ag: 2.5

How did COc1ccc(NC(=S)N/N=C/c2cccn2Cc2ccc(F)cc2Cl)cc1 do in these assays?
NRP1-CendR mod: -6.1; ASAP1 inh: 14.7; MC4R antagonist: 14.8; MC4R ag barr: 0.7; ARFGAP1 inh: -1.3

What do the screens show for `C[C@H](CO)N1C[C@H](C)[C@H](CN(C)S(=O)(=O)c2cn(C)cn2)OCCCC[C@H](C)Oc2ccc(NS(=O)(=O)c3ccc(F)cc3)cc2C1=O`?
Yeast UUG start: 11.2

What do the screens show for `CO[C@H]1CN(C)C(=O)c2cc(NC(=O)c3cccc(F)c3)ccc2OC[C@@H](C)N(CC2CC2)C[C@H]1C`?
Yeast UUG start: 0.5

Results for O=C(CC1CC1)N[C@@H]1CC[C@H](CCNS(=O)(=O)c2ccc(Cl)cc2)O[C@@H]1CO ?
Yeast UUG start: -26.0

What do the screens show for `O=C(Nc1nccs1)c1ccc(COc2c(F)c(F)cc(F)c2F)cc1`?
NRP1-CendR mod: 7.6; ASAP1 inh: 8.1; Yeast UUG start: 2.8; MC4R antagonist: 14.9; MC4R ag barr: 11.1*; ARFGAP1 inh: 9.7; MC4R barr ag: 6.2; MOR-DOR barr ag: 5.0

How did O=[N+]([O-])c1cccc(N/N=C/c2cc([N+](=O)[O-])ccc2O)c1 do in these assays?
NRP1-CendR mod: 17.2; ASAP1 inh: -8.1; MC4R antagonist: -10.3; MC4R ag barr: 10.6*; ARFGAP1 inh: 10.5; MC4R barr ag: -5.6; MOR-DOR barr ag: 3.2
